ChEMBL document CHEMBL3272034

How the values were obtained:
[1] = tested on: KB; experiment: Growth inhibition of human KB cells assessed as cell growth at 1 ug/ml after 16 hrs by EORTC method relative to control
[2] = tested on: KB; experiment: Growth inhibition of human KB cells assessed as cell growth at 10 ug/ml after 16 hrs by EORTC method relative to control
[3] = tested on: KB; experiment: Growth inhibition of human KB cells assessed as cell growth at 100 ug/ml after 16 hrs by EORTC method relative to control
[4] = tested on: KB; experiment: Growth inhibition of human KB cells assessed as cell growth at 1 ug/ml after 72 hrs by EORTC method relative to control
[5] = tested on: KB; experiment: Growth inhibition of human KB cells assessed as cell growth at 10 ug/ml after 72 hrs by EORTC method relative to control
[6] = tested on: KB; experiment: Growth inhibition of human KB cells assessed as cell growth at 100 ug/ml after 72 hrs by EORTC method relative to control
[7] = Stability of the compound at pH 4.18; conditions: buffer

SMILES: Cc1[nH]c(=O)[nH]c(=O)c1CN(CCCl)CCCl.Cl
- growth inhibition (GI) [1]: 67%
- growth inhibition (GI) [2]: 63%
- growth inhibition (GI) [3]: -77%
- growth inhibition (GI) [4]: 32%
- growth inhibition (GI) [5]: 9%
- growth inhibition (GI) [6]: 91%
- Stability [7]: Unstable
